Data reported in ChEMBL document CHEMBL5344480, “Synthesis and bioactivity of psilocybin analogues containing a stable carbon-phosphorus bond” (RSC Med Chem, 2024).

Amino acid sequences for entries named in this document (tags omitted).
UniProt P41595, whole entry: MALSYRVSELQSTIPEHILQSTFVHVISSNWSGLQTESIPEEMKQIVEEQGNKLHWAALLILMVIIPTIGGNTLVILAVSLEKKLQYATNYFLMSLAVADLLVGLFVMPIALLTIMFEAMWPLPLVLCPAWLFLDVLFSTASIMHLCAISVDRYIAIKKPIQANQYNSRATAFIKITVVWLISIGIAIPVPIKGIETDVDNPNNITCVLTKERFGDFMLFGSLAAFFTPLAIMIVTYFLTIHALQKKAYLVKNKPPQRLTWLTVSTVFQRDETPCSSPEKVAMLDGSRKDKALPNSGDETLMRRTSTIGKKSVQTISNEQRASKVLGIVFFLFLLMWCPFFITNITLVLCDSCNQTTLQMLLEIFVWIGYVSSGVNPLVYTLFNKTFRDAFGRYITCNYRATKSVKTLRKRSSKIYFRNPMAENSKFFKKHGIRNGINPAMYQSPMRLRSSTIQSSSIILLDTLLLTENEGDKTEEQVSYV

Biological target: 5-hydroxytryptamine receptor 2B (Homo sapiens, UniProt P41595)

CN(C)CCc1c[nH]c2cccc(O)c12 [PSILOCIN]
Ki: 4.6 nM

CN(C)CCc1c[nH]c2cccc(OP(=O)(O)O)c12 [PSILOCYBIN]
Ki: 98.7 nM
